Reference: ChEMBL document CHEMBL1129713, “Inhibitors of MMP-1: an examination of P1 C gem-disubstitution in the succinamide hydroxamate series” (Bioorg Med Chem Lett, 1996)

Target: T1, Interstitial collagenase (Homo sapiens, UniProt P03956)
T1 sequence (P03956 whole entry): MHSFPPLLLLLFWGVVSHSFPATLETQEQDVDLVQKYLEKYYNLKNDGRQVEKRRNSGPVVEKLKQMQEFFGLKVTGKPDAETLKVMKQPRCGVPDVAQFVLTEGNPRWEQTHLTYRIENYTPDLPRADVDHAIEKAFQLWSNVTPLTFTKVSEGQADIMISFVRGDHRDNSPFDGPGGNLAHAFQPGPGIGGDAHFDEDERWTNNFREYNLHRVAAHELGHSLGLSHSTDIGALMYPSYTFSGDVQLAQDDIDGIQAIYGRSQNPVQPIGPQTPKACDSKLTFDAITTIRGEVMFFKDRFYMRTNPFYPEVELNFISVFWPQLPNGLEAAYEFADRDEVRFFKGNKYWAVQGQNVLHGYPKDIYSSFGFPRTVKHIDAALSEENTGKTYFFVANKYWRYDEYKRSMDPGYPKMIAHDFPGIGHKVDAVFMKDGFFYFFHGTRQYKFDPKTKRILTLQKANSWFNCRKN
Assay: Inhibition of Matrix Metallo Proteinase-1 (MMP-1)

IC50: 1.9 nM
Structure (SMILES): CNC(=O)[C@H](Cc1ccc(OC)cc1)NC(=O)[C@@H](CC(=O)NO)CC(C)C
